Publication PMC9933440 (Crystal Growth & Design, 2022)

Assay: Solubility experiments in sodium phosphate buffer pH 6.5, 37 °C (HPLC)
Conditions: highest dissolved concentration
Protocol: Solubility experiments were conducted in sodium phosphate buffer solutions at pH 6.5 and 37 °C to simulate intestinal physiological conditions. For each experiment, an excess crystalline solid was sieved through a 300 μm sieve and introduced into a flask with a screw top containing 100 mL of the medium. The solution was stirred at 200 rpm using a magnetic stir bar for 48 h to reach the equilibrium state. […] After each sampling, the volume of the liquid removed from the suspension was not compensated. The withdrawn suspension was filtered through 0.2 μm nylon filters and diluted prior to high-performance liquid chromatography (HPLC) analysis. The solubility experiment for each crystal form was repeated in triplicate. After the last sample collection, the remaining solid material in the suspension was filtered, dried, and characterized by IR and PXRD.
A C18 HPLC column (YMC-Pack ODS-A column, 4.6 mm × 250 mm, 5 μm) with a flow rate of 1 mL min^–1 was employed, and the column temperature was set at 25 °C. The binary mobile phase consisted of acetonitrile and sodium phosphate buffer (pH 6.5) in a volume ratio of 25:75. The samples were diluted appropriately with the mobile phase, and the absorbance was measured at 347 nm.

## Cc1cnc(NC(=O)C2=C(O)c3ccccc3S(=O)(=O)N2C)s1 [MEL, meloxicam]
  dissolved MEL: 0.08 mg mL^–1 and 0.08 ± 0.02 mg mL^–1

Where “and” joins values, the source holds several entries; their conditions need not be identical. Identical values can stand only once.
